Literature values as cited in PMC10472371, “Discovery of E2730, a novel selective uncompetitive GAT1 inhibitor, as a candidate for anti‐seizure medication” (Epilepsia Open, 2023).
Marks after values point to notes of the source that are not given here.

Test system: ddY mice
Conditions: ref Levy et al.[39]; cited from earlier work

## CCCC(CCC)C(=O)O [Valproate, valproate]
  TD50 (95% CI) in mouse rotarod test: 398 ^b mg/kg
